Experimental data: US11279734B2, “Solution-phase affinity selection of inhibitors from combinatorial peptide libraries” (Massachusetts Institute of Technology, priority 2017, dated 2022)

Chains of the proteins cited; added tags and fusions are not shown. Residues count along the entry.
UniProt Q00987, 25-109, looked up: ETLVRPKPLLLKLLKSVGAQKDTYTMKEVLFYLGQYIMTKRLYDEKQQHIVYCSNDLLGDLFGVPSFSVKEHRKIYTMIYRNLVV

Experiments:
1-137MDMX = target: T1, 1-137MDMX (Homo sapiens, UniProt O15151); type: binding; conditions: biotin labeled peptide immobilized to streptavidin sensors; global fitting
T1 construct: Human ^1-137MDMX was purchased from Abcam (ab167947); purchased Abcam ab167947
T1 sequence (O15151 1-137): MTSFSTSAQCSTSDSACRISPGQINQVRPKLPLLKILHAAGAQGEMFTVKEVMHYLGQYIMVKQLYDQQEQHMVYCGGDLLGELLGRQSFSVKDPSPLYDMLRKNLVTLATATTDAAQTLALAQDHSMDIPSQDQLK

SUMO-25-109 MDM2 = SUMO-25-109 MDM2 (Homo sapiens, UniProt Q00987); type: binding; conditions: biotin labeled peptide immobilized to streptavidin sensors; global fitting of association and dissociation curves
Solubility limit = type: physicochemical

LTFEHYWAQLTSK [peptide 6a, reference compound]
Kd (1-137MDMX): 83 ± 4 nM | Kd (SUMO-25-109 MDM2): 47 ± 2 nM

LTFEHYWAQLTSK [peptide 6]
solubility limit (Solubility limit): ~10 mg/mL
